Test results taken from the supplement of paper PMC13207355.

Legend:
Conditions in all cases: exposure time: 72 h
E28 [1] = patient-derived glioblastoma stem cells of classical subtype; experiment: phenotypic distance (Euclidean, principal components) from DMSO controls (arbitrary units); higher = stronger morphological change
Procedure: (§1)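 Validation of 211 repurchased screening hits by 7-8 point semi-log dose response (about 3-3000 nM) on six patient-derived glioblastoma stem cell lines (GCGR E13, E21, E28, E31, E34, E57) and a normal neural stem cell line (FT3469), grown on laminin in 384-well plates and exposed for 72 h (0.1% DMSO). Cell Painting read-out: the DMSO-normalised nuclei count gives the surviving fraction, and the phenotypic distance is the Euclidean distance in 20 principal components of CellProfiler features relative to the plate DMSO controls (StratoMineR). One well per dose (n=1), 6 fields of view.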

E21 [2] = patient-derived glioblastoma stem cells of mesenchymal subtype; experiment: as above
Procedure: as §1

FT3469 [3] = normal neural stem cell line; experiment: as above
Procedure: as §1

E34 [4] = patient-derived glioblastoma stem cells of proneural subtype; experiment: as above
Procedure: as §1

E13 [5] = patient-derived glioblastoma stem cells of classical subtype; experiment: as above
Procedure: as §1

E57 [6] = patient-derived glioblastoma stem cells of mesenchymal subtype; experiment: as above
Procedure: as §1

E31 [7] = patient-derived glioblastoma stem cells of proneural subtype; experiment: as above
Procedure: as §1

E28 [8] = experiment: surviving fraction (nuclei count normalised to DMSO); higher = more cells surviving (less toxic)
E21 [9] = experiment: as above
FT3469 [10] = experiment: as above
E34 [11] = experiment: as above
E13 [12] = experiment: as above
E57 [13] = experiment: as above
E31 [14] = experiment: as above
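Wherever phenotypic distance (Euclidean, principal components) from DMSO controls is given: cell Painting imaging in 384-well plates, CellProfiler features reduced to at least 20 principal components, Euclidean distance versus same-plate DMSO vehicle wells (0.1% v/v), median over six images per well.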
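Wherever surviving fraction (nuclei count normalised to DMSO) is given: nuclei counted by high-content imaging of Hoechst-stained cells in laminin-coated 384-well plates, relative to 0.1% DMSO vehicle wells, with staurosporine as cell-death control.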

COc1cc(Br)c(C[N+]2(CCOCCC3CCC4CC3C4(C)C)CCOCC2)cc1OC (stereo not drawn) [Pinaverium bromide]
Conditions	phenotypic distance	surviving fraction
E13 [5], 4.1 nM	0.64	–
E13 [5], 12.3 nM	0.313	–
E13 [5], 37 nM	0.695	–
E13 [5], 111.1 nM	0.681	–
E13 [5], 333.3 nM	0.69	–
E13 [5], 1000 nM	1.03	–
E13 [5], 3000 nM	0.903	–
E13 [12], 4.1 nM	–	0.944
E13 [12], 12.3 nM	–	0.965
E13 [12], 37 nM	–	1.06
E13 [12], 111.1 nM	–	1.08
E13 [12], 333.3 nM	–	0.931
E13 [12], 1000 nM	–	0.92
E13 [12], 3000 nM	–	0.775
E21 [2], 4.1 nM	0.789	–
E21 [2], 12.3 nM	0.834	–
E21 [2], 37 nM	0.736	–
E21 [2], 111.1 nM	3.34	–
E21 [2], 333.3 nM	2.01	–
E21 [2], 1000 nM	1.99	–
E21 [2], 3000 nM	3.26	–
E21 [9], 4.1 nM	–	1.1
E21 [9], 12.3 nM	–	1
E21 [9], 37 nM	–	0.981
E21 [9], 111.1 nM	–	0.837
E21 [9], 333.3 nM	–	0.931
E21 [9], 1000 nM	–	0.89
E21 [9], 3000 nM	–	0.786
E28 [1], 4.1 nM	0.713	–
E28 [1], 12.3 nM	0.923	–
E28 [1], 37 nM	0.491	–
E28 [1], 111.1 nM	0.713	–
E28 [1], 333.3 nM	0.57	–
E28 [1], 1000 nM	1.15	–
E28 [1], 3000 nM	2.53	–
E28 [8], 4.1 nM	–	1.11
E28 [8], 12.3 nM	–	1.09
E28 [8], 37 nM	–	1.07
E28 [8], 111.1 nM	–	0.952
E28 [8], 333.3 nM	–	0.992
E28 [8], 1000 nM	–	0.874
E28 [8], 3000 nM	–	0.596
E31 [7], 4.1 nM	0.516	–
E31 [7], 12.3 nM	0.903	–
E31 [7], 37 nM	0.304	–
E31 [7], 111.1 nM	0.939	–
E31 [7], 333.3 nM	1.76	–
E31 [7], 1000 nM	2.44	–
E31 [7], 3000 nM	1.9	–
E31 [14], 4.1 nM	–	0.859
E31 [14], 12.3 nM	–	0.871
E31 [14], 37 nM	–	0.915
E31 [14], 111.1 nM	–	0.976
E31 [14], 333.3 nM	–	1.05
E31 [14], 1000 nM	–	0.93
E31 [14], 3000 nM	–	0.615
E34 [4], 4.1 nM	0.656	–
E34 [4], 12.3 nM	0.768	–
E34 [4], 37 nM	0.758	–
E34 [4], 111.1 nM	0.83	–
E34 [4], 333.3 nM	0.93	–
E34 [4], 1000 nM	1.11	–
E34 [4], 3000 nM	1.49	–
E34 [11], 4.1 nM	–	1.11
E34 [11], 12.3 nM	–	1.1
E34 [11], 37 nM	–	0.886
E34 [11], 111.1 nM	–	0.988
E34 [11], 333.3 nM	–	0.931
E34 [11], 1000 nM	–	1.01
E34 [11], 3000 nM	–	1.12
E57 [6], 4.1 nM	0.441	–
E57 [6], 12.3 nM	0.742	–
E57 [6], 37 nM	0.328	–
E57 [6], 111.1 nM	0.556	–
E57 [6], 333.3 nM	0.795	–
E57 [6], 1000 nM	1.34	–
E57 [6], 3000 nM	2.4	–
E57 [13], 4.1 nM	–	1.01
E57 [13], 12.3 nM	–	1.01
E57 [13], 37 nM	–	1.02
E57 [13], 111.1 nM	–	1.05
E57 [13], 333.3 nM	–	1.07
E57 [13], 1000 nM	–	1.06
E57 [13], 3000 nM	–	1.04
FT3469 [3], 4.1 nM	0.728	–
FT3469 [3], 12.3 nM	1.05	–
FT3469 [3], 37 nM	0.502	–
FT3469 [3], 111.1 nM	0.754	–
FT3469 [3], 333.3 nM	0.722	–
FT3469 [3], 1000 nM	1.16	–
FT3469 [3], 3000 nM	1.56	–
FT3469 [10], 4.1 nM	–	1.13
FT3469 [10], 12.3 nM	–	1.14
FT3469 [10], 37 nM	–	1.03
FT3469 [10], 111.1 nM	–	1.11
FT3469 [10], 333.3 nM	–	1.04
FT3469 [10], 1000 nM	–	1.01
FT3469 [10], 3000 nM	–	0.864
